Assay results taken from ChEMBL document CHEMBL6092210, “Synthesis, in vitro and in vivo biological evaluation of novel dual compounds targeting both acetylcholinesterase and serotonergic 5-HT4 receptors with potential interest in the treatment of Alzheimer's disease” (Eur J Med Chem, 2024).

Protein sequences, listed by entry. Tags and fused reporters are not part of them. Lines headed by an entry give the natural chain unless they say otherwise; changes in a name come on top.
UniProt Q13639: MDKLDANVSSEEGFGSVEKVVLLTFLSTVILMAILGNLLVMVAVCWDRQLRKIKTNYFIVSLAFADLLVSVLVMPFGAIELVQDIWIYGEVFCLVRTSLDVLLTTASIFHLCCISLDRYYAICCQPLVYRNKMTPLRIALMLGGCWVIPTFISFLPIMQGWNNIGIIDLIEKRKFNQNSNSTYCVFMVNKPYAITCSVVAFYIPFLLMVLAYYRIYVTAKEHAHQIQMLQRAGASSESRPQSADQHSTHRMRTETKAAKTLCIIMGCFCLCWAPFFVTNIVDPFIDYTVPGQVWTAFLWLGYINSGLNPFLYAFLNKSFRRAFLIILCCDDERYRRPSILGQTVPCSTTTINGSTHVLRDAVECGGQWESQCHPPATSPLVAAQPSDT

Target: 5-hydroxytryptamine receptor 4 (Homo sapiens, UniProt Q13639)
Assay: Agonist activity at human recombinant 5HT4 receptor transiently transfected in human COS7 cells using p-nitrophenyl phosphate disodium hexahydrate as substrate assessed as induction of sAPPalpha release by measuring maximum efficacy incubated for 30 mins by microplate reader analysis relative to control
Format: functional, cell-based

- Emax: 23.5%
SMILES: CCCCN1CCC(CCC(=O)c2cc(Cl)c(N)cc2OC)CC1
